This passage reports activity, negative = inhibition results from PubChem BioAssay AID1460 (National Center for Advancing Translational Sciences (NCATS), 2008).

Amino acid sequences for entries named in this document (tags omitted). Residues count along the entry.
UniProt P10636, 561-689 P618L limits assumed: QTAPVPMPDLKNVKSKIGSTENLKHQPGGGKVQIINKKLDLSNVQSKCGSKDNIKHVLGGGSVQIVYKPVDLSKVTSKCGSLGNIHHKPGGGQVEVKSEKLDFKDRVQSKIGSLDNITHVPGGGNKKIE

Only a part is listed here, and it is no random draw. Some of these compounds have results that are not shown, active ones among them. Records with an inconclusive call do not appear. Active and inactive are the calls of the source. Calls follow the shape of the dose curve; as a rule, active = well fitted inhibition curve with a large enough effect; inconclusive = small, poorly fitted or top-dose-only effect; inactive = flat fitted curve, though single readings scatter.
% is scaled to controls: 0 for no effect and ±100 for the full control effect.

In the test the target is Microtubule-associated protein tau (Homo sapiens) (UniProt P10636). The test can be described thus: qHTS for Inhibitors of Tau Fibril Formation, Thioflavin T Binding. Also: nearly all actives have a fitted effect of over 55% in size. The following applies: recombinant tau K18 P301L (four-repeat tau fragment), heparin-induced fibrillization, ThT fluorescence; at 57.4 µM (top of the series). Background: Quantitative high-throughput screening tests each substance at several concentrations.
`CCN(CC)CC(C)C(C)OC(=O)C(O)(c1ccccc1)c1ccccc1` (stereo unspecified): the activity, negative = inhibition is inactive: 2.94%.
`CN(C)C1(CNC(=O)c2cccc(Cl)c2)CCCCC1`: the activity, negative = inhibition was inactive: -2.5%.
As to `CC(C)N1C(=O)CC2(CCN(CCOC(=O)C(O)(c3ccccc3)c3ccccc3)CC2)C1=O`, the activity, negative = inhibition was inactive: 0.106%.
Consider `CN(C)C1(CNC(=O)c2ccccc2F)CCCCC1`, for which the activity, negative = inhibition was inactive: 1.48%.
`O=C(NCC1(N2CCCCC2)CCCCC1)c1cc([N+](=O)[O-])ccc1Cl`: the activity, negative = inhibition is inactive: -13.3%.
For the molecule `C=CCN1CCN(CCOC(=O)C(O)(c2ccccc2)c2ccccc2)CC1`, the activity, negative = inhibition is inactive: -3.37%.
On to `CCOc1cccc(C(=O)NCC2(N(C)C)CCCCC2)c1`, for which the activity, negative = inhibition was inactive: 7.43%.
As for `CCN1CCCC(OC(=O)C2(O)c3ccccc3C=Cc3ccccc32)C1` (stereo unspecified), the figure is inactive: 7.25%; as for `CN(C)C1(CNC(=O)c2ccccc2[N+](=O)[O-])CCCCC1`, inactive: -9.21%; as for `Cc1ccccc1C(=O)NCC1(N2CCCCC2)CCCCC1`, inactive: 2.86%.
With `CN(C)C1CCCC1OC(=O)C(O)(c1ccccc1)c1ccccc1` (stereo unspecified), the activity, negative = inhibition is inactive: 2.5%.
With `CCCCOc1ccccc1C(=O)NCC1(N(C)C)CCCCC1`, the activity, negative = inhibition is inactive: -3.58%.
As for `COc1cccc(C(=O)NCC2(N3CCCCC3)CCCCC2)c1`, the figure is inactive: -2.16%.
As for `COc1ccc(C(=O)NCC2(N(C)C)CCCCC2)cc1Cl`, the figure is inactive: 3.28%; as for `COc1cc(C(=O)NCC2(N(C)C)CCCCC2)cc(OC)c1OC`, inactive: 6.63%; as for `Cc1cccc(C(=O)NCC2(N(C)C)CCCCC2)c1`, inactive: 8.01%.
As for `CC(C)Oc1ccc(C(=O)NCC2(N(C)C)CCCCC2)cc1`, the activity, negative = inhibition is inactive: -0.72%.
Consider `CN(C)c1cccc(C(=O)NCC2(N(C)C)CCCCC2)c1`, for which the activity, negative = inhibition is inactive: -3.55%.
`COc1cccc(C(=O)NCC2(N3CCOCC3)CCCCC2)c1`: the activity, negative = inhibition is inactive: -2.98%.
As for `O=C(OC1CN2CCC1CC2)C(CO)(c1ccccc1)c1ccccc1` (stereo unspecified), the figure is inactive: 5.48%.
Take `CC(C)COc1ccc(C(=O)NCC2(N(C)C)CCCCC2)cc1`: the activity, negative = inhibition is inactive: 1.98%.
